Where two headings read alike, the source gives them in different places.

Sequences of proteins named here, by UniProt entry; tags and fusion partners are left off. Residues count along the entry.
UniProt P97287, 152-308: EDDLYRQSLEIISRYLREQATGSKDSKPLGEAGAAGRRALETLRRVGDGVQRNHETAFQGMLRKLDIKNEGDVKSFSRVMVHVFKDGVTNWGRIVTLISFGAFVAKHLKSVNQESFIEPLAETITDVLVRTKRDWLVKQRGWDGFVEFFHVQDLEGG

As usually defined, the IC50 is the concentration that gives 50% inhibition. Lower therefore signals greater potency in that assay.

Common to all, as to assay: competition phage ELISA
For one test, the target named is Bcl-2.
The target in the next test is Bcl-w.
For test [1], the target named is mouse Mcl-1 with truncations of 151 amino acid residues at its N-terminus and 23 residues at its C-terminus (mouse) (UniProt P97287).
Test [2] has the same target. The source holds these as a separate data set.

As for “Bim BH3 wild type, phage-displayed (peptide)”, the IC50 was found to be 5 nM with Bcl-2, 20 nM with Bcl-w, 9 nM in test [1] and 10 nM in test [2].

The values above are taken from patent US20090048164A1.
